System: Receptor-type tyrosine-protein kinase FLT3 (Homo sapiens), P36888 [K663Q]
Conditions: Compound concentration 1000.0 nM

O=C(Nc1ccc(Oc2ccc(F)cc2)cc1)N1CCc2ncccc2[C@H]1c1ccc(F)cc1 [BAY-897]
residual activity: 41%
